The conditions of this data set: oral, in drinking water, vs controls on untreated water ad libitum. The method, then: Mouse lines and husbandry—C57BL/6J-Pde6α^nmf363/nmf363, with a D670G mutation, herein referred to as Pde6α^D670G, mice were obtained from the Jackson Laboratory (Bar Harbor, ME, USA). Pde6α^D670G are co-isogenic in the C57BL/6J (B6) background; therefore, age-matched B6 mice were used as experimental controls. Mice were bred and maintained at the facilities of Columbia University and Stanford University. Animals were kept on a light-dark cycle (12 hour-12 hour). Food and water were available ad libitum throughout the experiment, whether treated or untreated. Dark-raising was performed under 24 hr dark cycle following approved institutional guidelines. […] All water bottles were covered in foil to reduce light exposure and changed weekly during the duration of the experiment following approved institutional guidelines.

The values below come from patent publication US12558336B2, “Metabolic rescue of retinal degeneration” (The Board of Trustees of the Leland Stanford Junior …, priority 2019, dated 2026).

For `O=C(O)CCC(=O)C(=O)O` [alpha-ketoglutarate, Alpha-ketoglutaric acid], the “size and weight of treated mice (side effect)” value was “smaller in size and weight than controls”.
